Assay: Protective index, ratio of TD50 for CF1 albino mouse neurotoxicity to ED50 for protection against 6 Hz electroshock-induced seizure in CF1 albino mouse
Assay type: toxicity, organism-based
Settings: in vivo, read-out: Ratio TD50/ED50

NC(=O)N1c2ccccc2C=Cc2ccccc21 [CARBAMAZEPINE]
selectivity ratio: 0.95

— ChEMBL document CHEMBL3352818, “Seizure prevention by the naturally occurring phenols, carvacrol and thymol in a partial seizure-psychomotor model” (Bioorg Med Chem Lett, 2014)
